Results published in US20260273048A1, “METHODS OF IMPROVING TRANSPLANT SURVIVAL USING IL-2 RECEPTOR GAMMA CHAIN ANTIBODIES” (Regeneron Pharmaceuticals, Inc., priority 2023, published 2026).

System: BALB/cJ tail skin graft on VG mice humanized for IL2RG
Assay: In vivo skin graft rejection model, REGN7257 induction with abatacept maintenance (Example 2)
Parameters: species or system mouse
Conditions: induction: 2 doses 25 mg/kg s.c. (2 days prior and day of transplant); maintenance: 25 mg/kg s.c. 2 times per week from day of transplant until rejection; FIG. 5
Text: BALB/cJ mice obtained from The Jackson Laboratory (Bar Harbor, ME) were used as skin graft donors, and MHC mismatched Velocigene® (VG) background mice (C57BL/6NTac (75%)/129S6SvEvTac (25%)) from the Regeneron Velocigene® breeding colony that were genetically modified to replace the endogenous IL2RG ectodomain with the corresponding human sequences were used as recipients. The skin graft was obtained from the tail of the donor mice. The skin was the peeled off using forceps and punched with a 10 mm diameter biopsy punch.
As shown in Table 3 below and in FIG. 4, VG mice (humanized for IL2RG), used as graft recipients, were administered no treatment (negative control); or a treatment regimen as follows: • 2 doses of an IgG4 isotype control (REGN1945) or REGN7257 subcutaneously at 25 mg/kg, one dose 2 days prior and one dose the day of the skin transplant (“induction mAb treatment”); and • an IgG1 isotype control (REGN1932) or abatacept subcutaneously at 25 mg/kg at a frequency of 2 times per week starting the day of the transplant, and continuing until rejection (“maintenance mAb treatment”). […]
These grafts will display scabbing and contraction several […] from bandage removal. […] The complete rejection timepoint is recorded as the first day where 100% of the graft tissue was necrotic. Significance was determined by Log-rank (Mantel-Cox) test with Bonferroni correction (α=0.005, k=10).

abatacept [reference compound]
skin graft median survival time [MST] (time to complete skin graft rejection): 10 days
